Results on 64 molecules are retold here after PubChem BioAssay AID651819 (National Center for Advancing Translational Sciences (NCATS), 2012).

Only a part is listed here, and it is no random draw. Active and inactive are the calls of the source. No stated cut-off is given here; in the data, active means activity change below about -30%; inactive means the rest.
On the % scale 0 is the no-effect control and ±100 the full control effect.

For this assay, the system named is cytosolic chaperonin (CCT/TRiC complex). Put plainly: High-Throughput Screening for Modulators of Cytosolic Chaperonin Activity. Conditions: purified chaperonin ATPase assay, HTRF ADP detection, 30 min; stronger effect = lower value. An excerpt:
The eukaryotic chaperonin named TRiC (for TCP-1 ring complex), also called CCT (for chaperonin containing TCP1), is an essential and conserved chaperone required for the folding and activation of 10-15% of the proteins encoded by the human genome. […] Despite its central role in cellular folding, little is known about TRiC mechanism and mode of substrate binding. Currently, no specific TRiC inhibitors are available. Given the early promise of other chaperone-directed inhibitors as cancer therapeutics (e.g. HSP90 inhibitors), inhibitors of TRiC activity may also selectively target transformed cells and have potential use as therapeutics for cancer.
To this end, a miniaturized assay was developed to screen against the Molecular Libraries Small Molecule Repository (MLSMR).
NIH Chemical Genomics Center [NCGC]
NIH Molecular Libraries Probe Centers Network [MLPCN]
Assay Submitter (PI): Judith Frydman, Stanford University
1.5 uL/well TRiC enzyme suspended in buffer (30 mM TRIS pH7.4, 100 mM KCl, 5 mM MgCl2, 1 mM DTT) was added with BioRAPTR FRD dispenser at 40 nM or 20 nM (based on the enzymatic activity of used batches) final concentration to a white solid bottom medium binding 1536-well plate (Greiner Bio-One, Monroe, NC), and quickly spanned down. 23 nl/well of compound solutions in DMSO were added with a pintool transfer (Kalypsis, San Diego, CA) at a single 76 uM final concentration. Next, 1.5 µl/well ATP was dispensed with BioraptR at 10 uM final concentration after which the plates were incubated at 37 deg C for 30 min. HTRF(R) Transcreener(R) ADP (Cisbio US, Bedford, MA) detection reagents were prepared accordingly to the protocol and dispensed into the plate (1.5 uL/well each), incubated for 30 min at ambient temperature. Then, the plates were read using Envision reader with excitation at 330nm and emission at 615nm (Eu(3)-Cryptate donor signal) and 665nm (d2 acceptor signal). The ratio of […] was calculated for each well.
On the technique in general: Time-resolved FRET reads energy transfer from a long-lived donor to a nearby acceptor.
`c1nnnn1CCn1cnnn1`: the activity change was inactive: -2.16%.

For `CC(C)C(=O)NC(Sc1ccccc1)C(Cl)(Cl)Cl` (centres undefined), the activity change was inactive: -0.594%.

As to `O=P(Nc1nccs1)(c1ccccc1)c1ccccc1`, the activity change was inactive: 0.815%.

As to `O=P(Nc1nc2ccccc2s1)(c1ccccc1)c1ccccc1`, the activity change is inactive: 0.449%.

`C[C@H]1OP(=O)(Oc2ccccc2)[C@H](O)[C@H](O)[C@H]1N=[N+]=[N-]` (some centres undefined): the activity change was inactive: -1.25%.

As for `O=P(Nc1ccccn1)(c1ccc(Br)cc1)c1ccc(Br)cc1`, the activity change was inactive: -0.944%.

In the case of `CN(C)C1(CNC(=O)c2ccc(Cl)c(S(N)(=O)=O)c2)CCCCC1`, the activity change is inactive: -2.16%.

`COc1ccc(N)c([N+](=O)[O-])c1[N+](=O)[O-]`: the activity change is inactive: -0.316%.

For the molecule `Nc1ccc(CCCCOc2ccccc2)cc1`, the activity change was inactive: -4.47%.

On to `O=C(OC1CN2CCC1CC2)c1cccc(Cl)c1` (centres undefined), for which the activity change is inactive: 2.03%.

For `C(Cc1nn[nH]n1)Cc1nn[nH]n1`, the activity change is inactive: -2.18%.

Turning to `Nc1ccc([As](=O)(O)c2ccc([N+](=O)[O-])cc2)cc1`, the activity change was inactive: -1.73%.

In the case of `O=[As](O)(c1ccccc1)c1ccc(O)cc1`, the activity change was inactive: 0.303%.

As for `O=[N+]([O-])c1ccc(O)c(/C=N/Nc2ccc([N+](=O)[O-])cc2[N+](=O)[O-])c1`, the activity change was inactive: 0.185%.

With `O=[N+]([O-])c1ncn(CCn2cnc([N+](=O)[O-])n2)n1`, the activity change was inactive: 0.666%.

With `CC(=O)NC(SC(=S)N(C)C)C(Cl)(Cl)Cl` (centres undefined), the activity change is inactive: 0.876%.

For `O=P1(N(CCCl)CCCl)OCCC2CCCCN21` (centres undefined), the activity change is inactive: -1.43%.

With `c1ccc(-c2nn[nH]n2)c(-c2nn[nH]n2)c1`, the activity change is inactive: -5.26%.

As for `Cc1ccc(NP(=O)(Oc2cccc(C)c2)Oc2cccc(C)c2)nc1`, the activity change was inactive: -4.49%.

With `CCNC(=S)/N=C(\N)N[N+](=O)[O-]`, the activity change is inactive: 0.976%.

Take `O=C(NC1CCS(=O)(=O)C1)NP(=S)(Oc1ccccc1)Oc1ccccc1` (centres undefined): the activity change is inactive: -1.9%.

As to `CC(NC(=O)COC(=O)C(O)(c1ccccc1)c1ccccc1)c1ccccc1` (centres undefined), the activity change was inactive: -2.93%.

Regarding `Cc1ccccc1OP(=O)(Nc1ccccn1)Oc1ccccc1C`, the activity change is inactive: 1.12%.

As to `O=c1c2cc([N+](=O)[O-])ccc2[nH]c2c([N+](=O)[O-])cc([N+](=O)[O-])cc12`, the activity change is inactive: 0.0233%.

`CN(C)C(=O)Oc1noc2ccccc12`: the activity change is inactive: -0.268%.

In the case of `O=C(OC1CN2CCC1CC2)c1ccccc1` (centres undefined), the activity change was inactive: 1.95%.

Consider `CCC(=O)N1C2C3N(C(=O)CC)C1C1N(C(=O)CC)C(C(N1C(=O)CC)N3C(=O)CC)N2C(=O)CC`, for which the activity change is inactive: 0.833%.

For `COC(=O)c1cc2c(s1)N=C(c1ccccc1)N(C)P2(=O)N1CCOCC1` (centres undefined), the activity change was inactive: -0.116%.

As to `Cc1ccc(OP(=O)(Nc2ccccn2)Oc2ccc(C)cc2)cc1`, the activity change was inactive: -2.26%.

As to `CC(=O)NC(SC(=S)N(CC(C)C)CC(C)C)C(Cl)(Cl)Cl` (centres undefined), the activity change is inactive: -1.2%.

As for `CC(C)(C)C(=O)NC(Sc1ccccc1)C(Cl)(Cl)Cl` (centres undefined), the activity change is inactive: -1.34%.

On to `CCc1cc(O)c([N+](=O)[O-])c(C)c1[N+](=O)[O-]`, for which the activity change was inactive: -2.5%.

Regarding `O=P1(Nc2nc3ccc(Cl)cc3s2)COc2ccccc2O1` (centres undefined), the activity change is inactive: -1.11%.

`CCOc1ccc(C2=NCC(CBr)S2)cc1` (centres undefined): the activity change was inactive: -3.45%.

As for `CC(=O)Nc1ccc([As](=O)(O)O)c(O)c1`, the activity change is inactive: -1.43%.

On to `CC(=O)Nc1ccc(Oc2c([N+](=O)[O-])cc([N+](=O)[O-])cc2[N+](=O)[O-])cc1`, for which the activity change was inactive: -2.67%.

Turning to `Cc1ccccc1CN(C)C(=O)COC(=O)C(O)(c1ccccc1)c1ccccc1`, the activity change was inactive: -1.41%.

Regarding `C[C@H]1OP(=O)(Oc2ccccc2)C[C@@H]2O[C@@H]21` (some centres undefined), the activity change is inactive: -0.493%.

Take `C[C@@H]1C=CCP(=O)(Oc2ccccc2)O1` (some centres undefined): the activity change is inactive: -2.6%.

Regarding `CC(=O)c1ccc(N2CC2c2ccncc2)cc1` (centres undefined), the activity change is inactive: -2.99%.

Take `N#C/C(=C\c1ccc(N(CCBr)CCBr)cc1)C(N)=O`: the activity change is inactive: -1.48%.

For the molecule `COC(=O)C1(C)COP(=O)(NCc2ccccc2)OC1` (centres undefined), the activity change was inactive: -3.12%.

In the case of `CN1CCCC(OC(=O)C(c2ccccc2)c2ccccc2)C1` (centres undefined), the activity change is inactive: -1.18%.

Consider `Clc1ccc(Cl)c(NC2=NCC(CBr)S2)c1` (centres undefined), for which the activity change is inactive: 0.806%.

Consider `COc1ccccc1OP(=O)(Nc1ccc(C)cn1)Oc1ccccc1OC`, for which the activity change was inactive: -3.09%.

As for `Cc1ccc(OP(=O)(Nc2nccs2)Oc2ccc(C)cc2)cc1`, the activity change is inactive: -1.38%.

`CN(C(=O)Cc1ccc(Cl)c(Cl)c1)[C@H]1CCCC[C@H]1N1CCCC1`: the activity change is inactive: 0.201%.

Turning to `Cc1ccc(N/C(=N/P(=O)(N2CCOCC2)N2CCOCC2)N2CCOCC2)cc1`, the activity change was inactive: 1.69%.

Regarding `NC(=O)c1cc([N+](=O)[O-])cc([N+](=O)[O-])c1N`, the activity change is inactive: 0.0842%.

With `O=[N+]([O-])C1C(O)C(O)C([N+](=O)[O-])C(O)C1O` (centres undefined), the activity change is inactive: 1.84%.

On to `Oc1ccccc1CNc1ccccn1`, for which the activity change was inactive: -2.02%.

For the molecule `O=C(NC(Sc1ccncn1)C(Cl)(Cl)Cl)c1ccccc1` (centres undefined), the activity change was inactive: -6.29%.

For the molecule `Nc1cc(N)c2nonc2c1[N+](=O)[O-]`, the activity change is inactive: -0.964%.

Turning to `CC(C)CC(=O)NC(Sc1ccc(Cl)cc1)C(Cl)(Cl)Cl` (centres undefined), the activity change was inactive: -4.89%.

On to `Cc1cc(SC(NC(=O)c2ccc(F)cc2)C(Cl)(Cl)Cl)ncn1` (centres undefined), for which the activity change was inactive: 2.14%.

As for `CCOP(=O)(Nc1ccccc1)OCC`, the activity change was inactive: 1.02%.

`Cc1ccc(NP(=O)(Oc2ccccc2F)Oc2ccccc2F)nc1`: the activity change is inactive: -4.85%.

With `CN(C(=O)Cc1ccc(Cl)c(Cl)c1)[C@H]1CCCC[C@@H]1N1CCCC1`, the activity change is inactive: 3.75%.

As to `O=P(Nc1nc2ccc(Cl)cc2s1)(c1ccccc1)c1ccccc1`, the activity change is inactive: 0.267%.

On to `CN(C)P(=O)(N(C)C)n1c(Nc2ccccc2)nnc1-c1ccccc1`, for which the activity change is inactive: -0.512%.

For `CC(=O)Nc1ccc([As](=O)(O)O)cc1`, the activity change was inactive: -0.253%.

As to `O=C(O)c1ccccc1[As](=O)(O)O`, the activity change is inactive: 1.92%.

Turning to `CCCC1OP(N)(=O)OCC1CC` (centres undefined), the activity change was inactive: 0.951%.

Regarding `Nc1cccc2ccc([As](=O)(O)O)cc12`, the activity change was inactive: -0.357%.
